According to patent publication US20110071198A1, “NICOTINIC ACID RECEPTOR LIGANDS” (priority 2008, published 2011):

Tested on: cPLA2
Format: cell-based
Conditions: 200 μM nicotinic acid, control siRNA

Compound: O=C(O)c1cccnc1 [nicotinic acid, Nicotinic acid]
- phosphorylated cPLA2 after stimulation: increase in phosphorylated cPLA2
